Measured values from PMC7917437 (Journal of Medicinal Chemistry, 2021).

Test system: Caco-2 cells
Assay: In vitro permeability using Caco-2 cells
Format: in vitro ADME, human
Conditions: high permeability and poor solubility over the physiologic pH range

Biopharmaceutics Classification System (BCS) class: BCS Class 2
SMILES: CC[C@H](C)C(=O)N1CCC(NC(=O)Nc2ccc(OC(F)(F)F)c(F)c2)CC1 [EC5026, (S)-1-(3-Fluoro-4-(trifluoromethoxy)phenyl)-3-(1-(2-methylbutanoyl)piperidin-4-yl)urea]
